The values below come from publication PMC11584402.

Sequences of proteins named here, by UniProt entry; tags and fusion partners are left off.
UniProt P10415, whole entry: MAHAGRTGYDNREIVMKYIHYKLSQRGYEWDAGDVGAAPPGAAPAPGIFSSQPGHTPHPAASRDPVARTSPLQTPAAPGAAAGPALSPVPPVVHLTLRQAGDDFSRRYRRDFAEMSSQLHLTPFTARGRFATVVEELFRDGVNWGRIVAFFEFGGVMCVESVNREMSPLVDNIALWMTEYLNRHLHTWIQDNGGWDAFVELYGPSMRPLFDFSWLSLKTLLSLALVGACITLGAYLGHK
UniProt Q07817, whole entry: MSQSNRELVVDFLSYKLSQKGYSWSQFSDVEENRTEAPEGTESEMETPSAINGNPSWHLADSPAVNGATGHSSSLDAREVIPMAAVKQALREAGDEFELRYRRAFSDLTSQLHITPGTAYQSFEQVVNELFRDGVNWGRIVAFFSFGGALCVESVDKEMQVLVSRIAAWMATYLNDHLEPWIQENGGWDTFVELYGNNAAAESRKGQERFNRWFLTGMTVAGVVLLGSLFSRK
UniProt O43521, whole entry: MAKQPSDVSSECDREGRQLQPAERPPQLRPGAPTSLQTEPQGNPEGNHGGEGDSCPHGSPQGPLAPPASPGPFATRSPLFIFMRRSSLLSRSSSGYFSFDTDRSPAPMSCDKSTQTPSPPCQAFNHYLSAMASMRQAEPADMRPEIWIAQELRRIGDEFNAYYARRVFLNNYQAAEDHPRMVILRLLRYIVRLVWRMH

For orientation: Kd means the free concentration of one partner at which half of the binding sites on the other are occupied at equilibrium, for simple one-to-one binding. High values mean lower affinity, low ones higher affinity.

One experiment addresses BCL2-mCherry (human) (UniProt P10415). To be noted: natural protein; chains chain; remark: other sources report otherwise.
For a further experiment, the target named is BCLxL-mCherry (human) (UniProt Q07817). To be noted: natural protein; chains chain; remark: other sources report otherwise.

As for “BIMEL-eGFP (from UniProt O43521-1 1-198)”, the dissociation constant (Kd) with BCL2-mCherry (human) was found to be 134 nM; with BCLxL-mCherry (human) it was 71.1 nM.
